Broadly, the AC50 is the midpoint of the concentration-response curve, whichever way the signal moves.

Amino acid sequences for entries named in this document (tags omitted). Residues count along the entry.
UniProt O15393, 106-492: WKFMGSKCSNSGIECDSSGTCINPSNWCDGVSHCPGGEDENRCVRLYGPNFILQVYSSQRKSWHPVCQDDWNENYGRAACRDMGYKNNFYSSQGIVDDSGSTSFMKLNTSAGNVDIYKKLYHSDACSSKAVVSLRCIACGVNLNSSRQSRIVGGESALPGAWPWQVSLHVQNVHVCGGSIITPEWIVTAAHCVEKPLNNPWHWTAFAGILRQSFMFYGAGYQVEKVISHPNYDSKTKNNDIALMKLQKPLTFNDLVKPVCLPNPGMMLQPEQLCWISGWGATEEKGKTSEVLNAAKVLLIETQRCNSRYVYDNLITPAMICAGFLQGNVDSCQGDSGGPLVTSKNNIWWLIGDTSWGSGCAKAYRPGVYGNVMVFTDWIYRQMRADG

Assay [1] concerns the target T1, Recombinant Human TMPRSS2 (Homo sapiens, UniProt O15393). The experiment in a line: biochemical.
For assay [2], the target named is T1, Recombinant Human TMPRSS2. Briefly: biochemical. The protocol: Buffer conditions were tested and optimized to include: 50 mM Tris pH 8, 150 mM NaCl and 0.01% Tween20.
Following 1 h of incubation at RT, detection was done using the PHERAstar with 340 nm excitation and 440 nm emission (Table 1).
To determine compound activity in the assay, the concentration–response data for each sample was plotted and modeled by a four-parameter logistic fit yielding IC50 and maximal response values. […] Data normalization, visualization, and curve fitting were performed using Prism (GraphPad, San Diego, CA).
This is another data set of the same source.

Read-outs that look alike come from different tables or passages of the source.

On to `NCCc1ccc(S(=O)(=O)F)cc1` [4-(2-aminoethyl)benzenesulfonyl fluoride], for which the AC50 came out at 23.4 µM in assay [1] and 2.95 µM in assay [2].

With `O=S(=O)(F)Cc1ccccc1` [Phenylmethanesulfonyl fluoride (PMSF), Phenylmethanesulfonyl fluoride], the concentration at half-maximal activity (AC50) in assay [1] came to 87.9 µM; in assay [2], 4.68 µM.

For the origin of these results see doi:10.1101/2022.02.04.479134, “A Suite of TMPRSS2 Assays for Screening Drug Repurposing Candidates as Potential Treatments of COVID-19” (bioRxiv, 2022).
